SMILES strings stand for the structures.

The subject of the series is catalepsy. Briefly: Cataleptigenic effects (catalepsy). As to conditions: rat, in vivo; rats, oral route.

Broadly, the ED50 is the dose that gives a 50% effect, or the effect in half of the subjects. A low value points to greater potency. As for `Cc1nc2n(c(=O)c1CCN1CCC(c3noc4cc(F)ccc34)CC1)CCCC2` [Risperidone, risperidone, reference compound], the ED50 was found to be 3.5 mg/kg.
